## Antibody variant affinities, Ab-14 heavy chain, assay 1

Target: peptide PDVDLGDISGINAS, taken from heptad repeat 2 (HR2) of SARS-CoV-2 spike.

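The starting antibody came from a phage panning campaign against this peptide. AAYL49 was designed without a model: most single CDR substitutions and a random sample of double and triple ones. AlphaSeq pools MATa yeast showing the antibodies with MATalpha yeast showing the peptide. Binding brings cells together so that they mate, and sequencing counts the barcode pairs among the diploids. The ratio of observed to expected reads was calibrated, replicate by replicate, on BCL2-family standards whose Kd was known from biolayer interferometry. The assay was run in three technical replicates.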

Parent: Ab-14, a human scFv built as VH, a (GGGGS)3 linker, VL. Only the CDRs of the heavy chain vary.
VH: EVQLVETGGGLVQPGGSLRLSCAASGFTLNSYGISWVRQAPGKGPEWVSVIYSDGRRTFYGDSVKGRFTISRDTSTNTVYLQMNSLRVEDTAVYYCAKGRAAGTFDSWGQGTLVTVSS
VL: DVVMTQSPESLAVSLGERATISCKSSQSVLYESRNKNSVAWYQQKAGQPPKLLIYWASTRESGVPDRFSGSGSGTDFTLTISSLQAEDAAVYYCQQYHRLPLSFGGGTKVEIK

Substitutions are numbered in sequence along the VH above, starting at 1 (not Kabat). The Kd shown is the geometric mean over detected replicates; a lower Kd is a better binder. Where no diploid with the target was found in any replicate, the entry reads "no signal": below detection, most likely a poor binder, though not proof of it. Background: pairings of library AAYL49 with three empty control strains gave a value in 15% of cases (median 11 µM, 5th percentile 680 nM). Values in that range, when seen in few replicates, are hard to tell from nonspecific mating.

Kd | detected | changes
no signal | 0/3 | G55K D62F K65E
3.6 µM | 1/3 | S31I V64E
no signal | 0/3 | S31Y V50W D106E
no signal | 0/3 | G33F V50K R100W
no signal | 0/3 | G55F A101W A102F
no signal | 0/3 | Y32D I34P D54F
no signal | 0/3 | S53F D62C F105L
no signal | 0/3 | S53D Y60W G99V
no signal | 0/3 | A102E D106Q
no signal | 0/3 | S35V A101S S107G
no signal | 0/3 | G33C S63V T104A
no signal | 0/3 | L29C D106A
18 µM | 3/3 | G26S S63G G99V
no signal | 0/3 | D54C S63H A102C
13 µM | 1/3 | Y52S T58C R100T
1.5 µM | 1/3 | F27R I34E A101N
no signal | 0/3 | I51D F105Y
no signal | 0/3 | I51F Y52T V64A
no signal | 0/3 | N30W Y52G D62R
no signal | 0/3 | G61W D62I D106T
no signal | 0/3 | I34M K65T A102I
no signal | 0/3 | L29N R57E T58L
no signal | 0/3 | Y32P R57C
1.1 µM | 1/3 | S31M R57F D106R
23 nM | 3/3 | S31N G103S T104C
no signal | 0/3 | G33I V50T F105I
16 µM | 1/3 | V50L S53K A102D
no signal | 0/3 | I51C A101H D106R
53 µM | 2/3 | G26T G99S T104W
no signal | 0/3 | Y60W G61C
62 µM | 1/3 | N30Q G61Y D106Y
no signal | 0/3 | D54G G61A F105A
6.9 µM | 2/3 | G26F D54R G61T
no signal | 0/3 | G33Q G55C R100A
93 µM | 3/3 | Y32M Y60I T104R
360 nM | 3/3 | L29N S35M R56E
70 nM | 1/3 | Y32C S53V
11 µM | 2/3 | G33S S35Y
no signal | 0/3 | G55Y G103L F105H
3.0 µM | 1/3 | D54Y F59G D62A
760 nM | 1/3 | F27M G55H F105M
190 nM | 1/3 | G55D A102T
no signal | 0/3 | T28F I51W G99R
7.2 µM | 1/3 | Y32A V50C
5.9 µM | 1/3 | Y60F G99S D106C
no signal | 0/3 | G61Y S63L R100W
200 µM | 1/3 | G26H N30F S107P
no signal | 0/3 | V50Q Y60A G61H
450 nM | 1/3 | T28L T58G A101V
no signal | 0/3 | V50R R56G S63Q
no signal | 0/3 | F27C D54K G61Y
6.6 µM | 1/3 | S53I A101E S107K
no signal | 0/3 | A102W G103F S107Q
no signal | 0/3 | S53F S63K T104A
34 µM | 2/3 | L29N F59M G61Y
380 nM | 1/3 | N30I K65A A101S
no signal | 0/3 | S35G A102D T104M
16 µM | 1/3 | T28R S35V R100G
no signal | 0/3 | N30W I51W F59S
no signal | 0/3 | G26Q S31Y D106I
no signal | 0/3 | D54E G55M F59L
no signal | 0/3 | Y52P S53C A101T
no signal | 0/3 | G26A G33W A101V
19 µM | 2/3 | T28Q Y60G R100F
39 µM | 1/3 | F27E D54C V64T
no signal | 0/3 | S31G I34G F59C
7.1 nM | 3/3 | N30E A102P S107V
74 µM | 2/3 | T28C G33P V64L
no signal | 0/3 | Y52G R56E S107P
no signal | 0/3 | I34L S53V G61Y
no signal | 0/3 | I34P R56S D62Q

From the list, the first 5 with no signal in any replicate:

changes | Kd | detected
G55K D62F K65E | no signal | 0/3
S31Y V50W D106E | no signal | 0/3
G33F V50K R100W | no signal | 0/3
G55F A101W A102F | no signal | 0/3
Y32D I34P D54F | no signal | 0/3

The measurements come from Engelhart et al. 2022 (doi:10.1038/s41597-022-01779-4) through the FLAb antibody collection.